Reference: PubChem BioAssay (NCI)
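How tested: cells in 96-well plates exposed to compound for 48 hours at five concentrations. TGI: total growth inhibition.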

What was measured:
Assay in all cases: NCI-60 cell line screen, 48 h
[1] = test system: 786-0 renal
[2] = test system: A498 renal
[3] = test system: A549 NSCLC
[4] = test system: ACHN renal
[5] = test system: BT-549 breast
[6] = test system: CAKI-1 renal
[7] = test system: CCRF-CEM leukemia
[8] = test system: COLO 205 colon
[9] = test system: DU-145 prostate
[10] = test system: EKVX NSCLC
[11] = test system: HCC-2998 colon
[12] = test system: HCT-116 colon
[13] = test system: HL-60(TB) leukemia
[14] = test system: HOP-62 NSCLC
[15] = test system: HOP-92 NSCLC
[16] = test system: HT29 colon
[17] = test system: IGROV1 ovarian
[18] = test system: K-562 leukemia
[19] = test system: KM12 colon
[20] = test system: LOX IMVI melanoma
[21] = test system: M14 melanoma
[22] = test system: MALME-3M melanoma
[23] = test system: MCF7 breast
[24] = test system: MDA-MB-231 breast
[25] = test system: MDA-MB-435
[26] = test system: MDA-N
[27] = test system: MOLT-4 leukemia
[28] = test system: NCI-H226 lung
[29] = test system: NCI-H23 lung
[30] = test system: NCI-H322M lung
[31] = test system: NCI-H522 lung
[32] = test system: NCI/ADR-RES ovarian
[33] = test system: OVCAR-3 ovarian
[34] = test system: OVCAR-4 ovarian
[35] = test system: OVCAR-5 ovarian
[36] = test system: OVCAR-8 ovarian
[37] = test system: PC-3 prostate
[38] = test system: RPMI-8226 leukemia
[39] = test system: RXF 393 renal
[40] = test system: SF-295 CNS
[41] = test system: SF-539 CNS
[42] = test system: SK-MEL-2 melanoma
[43] = test system: SK-MEL-28 melanoma
[44] = test system: SK-MEL-5 melanoma
[45] = test system: SK-OV-3 ovarian
[46] = test system: SN12C renal
[47] = test system: SNB-19 CNS
[48] = test system: SNB-75 CNS
[49] = test system: SR leukemia
[50] = test system: SW-620 colon
[51] = test system: U251 CNS
[52] = test system: UACC-257 melanoma
[53] = test system: UACC-62 melanoma
[54] = test system: UO-31 renal

Measured: TGI

CCOC(=O)NC(=S)N(C)P(=S)(OCC)N(C)C(=S)NC(=O)OCC
> 100 µM: all assays above
